Measured values as given in patent publication US20260384438A1, “PYRROLOPYRIMIDINE CARBOXAMIDES” (published 2026).

The chains behind the UniProt entries cited, without tags or fusion partners.
UniProt Q13177, whole entry: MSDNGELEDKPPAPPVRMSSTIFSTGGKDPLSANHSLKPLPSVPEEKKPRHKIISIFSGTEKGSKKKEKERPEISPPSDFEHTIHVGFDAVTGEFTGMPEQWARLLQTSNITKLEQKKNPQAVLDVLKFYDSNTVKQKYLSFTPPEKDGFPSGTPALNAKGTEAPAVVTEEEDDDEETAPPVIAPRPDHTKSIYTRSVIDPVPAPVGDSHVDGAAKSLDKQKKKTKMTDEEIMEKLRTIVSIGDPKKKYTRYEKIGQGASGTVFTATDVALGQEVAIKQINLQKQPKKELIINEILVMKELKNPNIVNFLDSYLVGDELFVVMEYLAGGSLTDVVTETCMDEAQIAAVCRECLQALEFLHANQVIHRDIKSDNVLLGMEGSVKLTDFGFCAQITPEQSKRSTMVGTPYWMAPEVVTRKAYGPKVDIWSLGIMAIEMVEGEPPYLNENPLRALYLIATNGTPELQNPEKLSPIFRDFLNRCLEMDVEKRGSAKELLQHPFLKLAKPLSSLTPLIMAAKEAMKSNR
UniProt Q13546, whole entry: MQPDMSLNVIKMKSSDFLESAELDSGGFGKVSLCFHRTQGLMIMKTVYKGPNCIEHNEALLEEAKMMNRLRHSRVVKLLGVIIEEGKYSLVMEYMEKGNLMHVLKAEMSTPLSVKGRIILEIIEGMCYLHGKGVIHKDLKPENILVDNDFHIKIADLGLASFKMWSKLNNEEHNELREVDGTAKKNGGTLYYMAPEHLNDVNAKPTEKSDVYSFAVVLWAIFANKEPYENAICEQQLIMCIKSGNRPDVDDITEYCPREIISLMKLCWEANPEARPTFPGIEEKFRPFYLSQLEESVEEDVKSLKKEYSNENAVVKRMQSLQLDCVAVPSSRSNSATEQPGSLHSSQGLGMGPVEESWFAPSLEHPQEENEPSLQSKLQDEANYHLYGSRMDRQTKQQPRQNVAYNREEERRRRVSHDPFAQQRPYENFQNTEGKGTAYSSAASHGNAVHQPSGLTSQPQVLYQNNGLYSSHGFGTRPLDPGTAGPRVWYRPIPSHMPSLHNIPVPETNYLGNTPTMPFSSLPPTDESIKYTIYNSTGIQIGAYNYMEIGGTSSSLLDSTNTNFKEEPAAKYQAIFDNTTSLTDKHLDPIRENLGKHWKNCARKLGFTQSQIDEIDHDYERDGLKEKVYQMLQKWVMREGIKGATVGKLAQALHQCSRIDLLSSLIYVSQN
UniProt Q05513, whole entry: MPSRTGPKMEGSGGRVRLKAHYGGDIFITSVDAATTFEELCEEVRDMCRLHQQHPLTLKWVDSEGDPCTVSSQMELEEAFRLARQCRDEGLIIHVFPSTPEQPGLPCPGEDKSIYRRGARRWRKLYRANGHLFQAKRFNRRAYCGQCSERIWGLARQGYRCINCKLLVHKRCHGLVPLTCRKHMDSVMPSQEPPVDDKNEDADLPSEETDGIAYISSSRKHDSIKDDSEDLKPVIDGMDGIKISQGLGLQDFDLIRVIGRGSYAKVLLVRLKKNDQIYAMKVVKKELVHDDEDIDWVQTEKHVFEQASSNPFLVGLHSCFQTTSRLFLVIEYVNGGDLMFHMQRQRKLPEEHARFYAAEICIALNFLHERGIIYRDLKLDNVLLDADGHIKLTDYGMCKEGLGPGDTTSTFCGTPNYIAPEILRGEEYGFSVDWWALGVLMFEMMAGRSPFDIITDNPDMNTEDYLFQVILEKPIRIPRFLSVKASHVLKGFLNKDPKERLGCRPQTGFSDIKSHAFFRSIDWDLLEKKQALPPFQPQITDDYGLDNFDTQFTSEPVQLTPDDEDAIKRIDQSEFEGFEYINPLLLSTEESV
UniProt O94921, whole entry: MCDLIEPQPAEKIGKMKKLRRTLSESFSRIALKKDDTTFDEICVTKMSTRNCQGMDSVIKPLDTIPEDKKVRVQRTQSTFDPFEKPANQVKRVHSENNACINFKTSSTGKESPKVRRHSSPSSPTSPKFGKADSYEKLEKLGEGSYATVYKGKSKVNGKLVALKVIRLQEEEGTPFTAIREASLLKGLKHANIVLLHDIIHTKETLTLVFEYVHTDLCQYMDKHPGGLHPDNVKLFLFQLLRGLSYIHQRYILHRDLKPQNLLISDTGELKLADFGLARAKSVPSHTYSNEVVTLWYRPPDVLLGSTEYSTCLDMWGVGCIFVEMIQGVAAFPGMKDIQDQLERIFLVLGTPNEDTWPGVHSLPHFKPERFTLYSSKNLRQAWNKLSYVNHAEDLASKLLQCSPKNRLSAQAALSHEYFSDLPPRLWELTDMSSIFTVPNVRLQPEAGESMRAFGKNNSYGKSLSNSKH
UniProt Q06187, whole entry: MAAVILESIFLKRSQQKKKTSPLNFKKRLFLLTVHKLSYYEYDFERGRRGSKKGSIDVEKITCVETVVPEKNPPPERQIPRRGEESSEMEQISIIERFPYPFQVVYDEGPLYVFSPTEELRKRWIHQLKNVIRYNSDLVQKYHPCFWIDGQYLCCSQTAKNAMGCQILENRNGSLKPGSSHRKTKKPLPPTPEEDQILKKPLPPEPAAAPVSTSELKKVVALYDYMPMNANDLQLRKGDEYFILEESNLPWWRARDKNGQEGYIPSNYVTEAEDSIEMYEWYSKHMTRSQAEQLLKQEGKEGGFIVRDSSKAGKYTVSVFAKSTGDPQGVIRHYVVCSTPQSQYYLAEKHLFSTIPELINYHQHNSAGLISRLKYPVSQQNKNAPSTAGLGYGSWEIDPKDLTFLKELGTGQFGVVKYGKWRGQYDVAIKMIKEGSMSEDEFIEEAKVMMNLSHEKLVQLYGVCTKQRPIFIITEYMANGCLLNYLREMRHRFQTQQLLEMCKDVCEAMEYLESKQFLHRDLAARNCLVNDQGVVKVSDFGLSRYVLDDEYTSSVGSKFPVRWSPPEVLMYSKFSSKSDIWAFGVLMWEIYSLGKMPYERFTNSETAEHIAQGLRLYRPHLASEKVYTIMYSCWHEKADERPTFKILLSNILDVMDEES
UniProt Q9NRM7, whole entry: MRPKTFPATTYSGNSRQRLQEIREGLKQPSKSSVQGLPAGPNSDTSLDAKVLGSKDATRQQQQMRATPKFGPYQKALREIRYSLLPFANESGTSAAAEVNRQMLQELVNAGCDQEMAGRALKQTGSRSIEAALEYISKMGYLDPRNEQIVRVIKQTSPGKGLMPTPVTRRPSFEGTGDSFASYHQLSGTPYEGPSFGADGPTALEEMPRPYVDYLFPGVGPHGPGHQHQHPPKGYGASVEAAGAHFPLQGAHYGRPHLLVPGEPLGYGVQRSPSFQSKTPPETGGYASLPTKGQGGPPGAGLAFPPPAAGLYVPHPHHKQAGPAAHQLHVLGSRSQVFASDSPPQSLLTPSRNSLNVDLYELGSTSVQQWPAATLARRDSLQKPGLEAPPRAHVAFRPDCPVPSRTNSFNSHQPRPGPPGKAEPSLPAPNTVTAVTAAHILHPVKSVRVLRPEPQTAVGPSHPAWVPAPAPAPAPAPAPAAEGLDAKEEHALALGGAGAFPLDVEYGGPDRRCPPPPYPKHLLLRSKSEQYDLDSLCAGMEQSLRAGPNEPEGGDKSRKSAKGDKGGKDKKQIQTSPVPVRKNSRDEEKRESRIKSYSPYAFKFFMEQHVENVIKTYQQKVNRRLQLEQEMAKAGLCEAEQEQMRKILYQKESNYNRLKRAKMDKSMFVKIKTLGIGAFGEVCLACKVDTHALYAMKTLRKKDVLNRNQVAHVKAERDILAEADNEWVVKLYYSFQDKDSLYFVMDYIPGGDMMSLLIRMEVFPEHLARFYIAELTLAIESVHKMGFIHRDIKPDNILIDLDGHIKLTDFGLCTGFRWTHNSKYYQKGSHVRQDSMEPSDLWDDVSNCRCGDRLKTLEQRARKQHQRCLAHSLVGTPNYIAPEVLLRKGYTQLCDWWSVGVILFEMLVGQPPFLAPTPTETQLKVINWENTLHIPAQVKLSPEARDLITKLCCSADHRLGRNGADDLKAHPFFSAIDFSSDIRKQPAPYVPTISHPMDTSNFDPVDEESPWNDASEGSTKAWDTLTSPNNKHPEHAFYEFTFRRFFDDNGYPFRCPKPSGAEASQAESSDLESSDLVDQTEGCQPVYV
UniProt Q16539, whole entry: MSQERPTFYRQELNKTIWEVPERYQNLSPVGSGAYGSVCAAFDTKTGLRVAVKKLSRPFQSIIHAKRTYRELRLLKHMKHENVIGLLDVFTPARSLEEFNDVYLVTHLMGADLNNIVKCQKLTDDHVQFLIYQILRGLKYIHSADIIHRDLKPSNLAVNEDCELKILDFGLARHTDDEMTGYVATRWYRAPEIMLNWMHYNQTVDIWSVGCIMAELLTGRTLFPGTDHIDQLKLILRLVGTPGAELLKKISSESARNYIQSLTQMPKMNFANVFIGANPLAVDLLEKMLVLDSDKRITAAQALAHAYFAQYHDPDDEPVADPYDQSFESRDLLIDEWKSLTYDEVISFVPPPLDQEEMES
UniProt Q7L7X3, whole entry: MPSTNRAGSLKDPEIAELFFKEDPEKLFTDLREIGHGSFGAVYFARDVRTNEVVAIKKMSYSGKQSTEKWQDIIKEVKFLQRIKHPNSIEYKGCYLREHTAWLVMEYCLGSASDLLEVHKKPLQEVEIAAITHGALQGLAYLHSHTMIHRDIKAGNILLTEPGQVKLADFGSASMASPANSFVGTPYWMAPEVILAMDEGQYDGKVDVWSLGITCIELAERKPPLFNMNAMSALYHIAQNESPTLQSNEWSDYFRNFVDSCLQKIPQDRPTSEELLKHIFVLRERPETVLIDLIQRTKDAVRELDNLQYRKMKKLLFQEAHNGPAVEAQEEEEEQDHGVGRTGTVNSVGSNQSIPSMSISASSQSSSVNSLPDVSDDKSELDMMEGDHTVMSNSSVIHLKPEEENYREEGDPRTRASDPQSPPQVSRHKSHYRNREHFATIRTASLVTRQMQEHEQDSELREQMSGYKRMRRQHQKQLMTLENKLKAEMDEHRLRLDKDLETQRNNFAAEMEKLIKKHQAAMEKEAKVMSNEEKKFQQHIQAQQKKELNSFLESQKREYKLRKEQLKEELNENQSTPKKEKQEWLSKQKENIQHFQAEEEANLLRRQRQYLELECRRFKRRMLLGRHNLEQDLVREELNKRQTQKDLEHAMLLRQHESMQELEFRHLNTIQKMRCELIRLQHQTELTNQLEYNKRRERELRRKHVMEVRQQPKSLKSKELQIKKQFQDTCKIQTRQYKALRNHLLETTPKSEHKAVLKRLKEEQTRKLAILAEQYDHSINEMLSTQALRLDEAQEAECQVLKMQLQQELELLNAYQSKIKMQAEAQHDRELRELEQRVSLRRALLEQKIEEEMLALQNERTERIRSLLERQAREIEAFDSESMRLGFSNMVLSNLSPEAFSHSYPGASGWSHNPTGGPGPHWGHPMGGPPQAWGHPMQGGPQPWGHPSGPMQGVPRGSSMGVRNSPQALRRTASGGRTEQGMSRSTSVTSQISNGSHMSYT
UniProt O75676, whole entry: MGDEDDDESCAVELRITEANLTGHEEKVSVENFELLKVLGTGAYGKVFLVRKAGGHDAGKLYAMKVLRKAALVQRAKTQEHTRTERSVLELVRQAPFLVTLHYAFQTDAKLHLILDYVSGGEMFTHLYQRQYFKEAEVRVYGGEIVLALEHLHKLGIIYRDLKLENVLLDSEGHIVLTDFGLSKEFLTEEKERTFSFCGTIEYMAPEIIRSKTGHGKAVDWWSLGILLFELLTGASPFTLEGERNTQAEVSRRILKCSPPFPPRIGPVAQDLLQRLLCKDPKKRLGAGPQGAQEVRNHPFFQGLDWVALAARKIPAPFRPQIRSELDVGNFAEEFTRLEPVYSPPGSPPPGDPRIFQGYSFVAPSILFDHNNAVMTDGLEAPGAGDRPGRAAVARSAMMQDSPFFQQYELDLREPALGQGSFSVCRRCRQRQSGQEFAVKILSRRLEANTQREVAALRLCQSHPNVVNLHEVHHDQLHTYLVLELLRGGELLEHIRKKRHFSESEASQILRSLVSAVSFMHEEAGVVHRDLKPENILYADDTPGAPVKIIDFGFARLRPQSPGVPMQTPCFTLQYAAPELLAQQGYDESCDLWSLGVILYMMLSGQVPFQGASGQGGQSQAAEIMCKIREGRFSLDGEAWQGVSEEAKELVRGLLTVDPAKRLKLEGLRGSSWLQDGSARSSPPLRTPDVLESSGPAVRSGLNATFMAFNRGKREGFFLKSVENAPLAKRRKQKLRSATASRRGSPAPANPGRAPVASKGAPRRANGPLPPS
UniProt O75716, whole entry: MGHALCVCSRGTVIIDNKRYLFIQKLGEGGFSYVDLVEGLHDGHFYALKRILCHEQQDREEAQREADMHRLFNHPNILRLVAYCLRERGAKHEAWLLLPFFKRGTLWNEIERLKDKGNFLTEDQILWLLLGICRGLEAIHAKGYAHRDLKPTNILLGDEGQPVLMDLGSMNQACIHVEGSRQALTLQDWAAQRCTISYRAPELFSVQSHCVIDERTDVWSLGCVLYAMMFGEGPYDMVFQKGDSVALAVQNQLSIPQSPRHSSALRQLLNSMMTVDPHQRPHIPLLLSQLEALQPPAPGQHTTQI

Legend:
Experiment in all cases: KAT chemical proteomics
[1] = molecular target: MERTK (Homo sapiens, UniProt Q12866)
[2] = molecular target: PAK2 (Homo sapiens, UniProt Q13177)
[3] = system: PRKAG3
[4] = molecular target: CDC42BPG (Homo sapiens, UniProt Q6DT37)
[5] = molecular target: DYRK1B (Homo sapiens, UniProt Q9Y463)
[6] = molecular target: CSNK1G1 (Homo sapiens, UniProt Q9HCP0)
[7] = molecular target: EPHA1 (Homo sapiens, UniProt P21709)
[8] = molecular target: MTOR (Homo sapiens, UniProt P42345)
[9] = molecular target: TGFBR1 (Homo sapiens, UniProt P36897)
[10] = molecular target: RIPK1 (Homo sapiens, UniProt Q13546)
[11] = molecular target: PRKCZ (Homo sapiens, UniProt Q05513)
[12] = molecular target: PRKCI (Homo sapiens, UniProt P41743)
[13] = molecular target: STRADB (Homo sapiens, UniProt Q9C0K7)
[14] = molecular target: DAPK2 (Homo sapiens, UniProt Q9UIK4)
[15] = molecular target: SIK2 (Homo sapiens, UniProt Q9H0K1)
[16] = molecular target: CLK1 (Homo sapiens, UniProt P49759)
[17] = molecular target: CDK14 (Homo sapiens, UniProt O94921)
[18] = molecular target: PKMYT1 (Homo sapiens, UniProt Q99640)
[19] = molecular target: SYK (Homo sapiens, UniProt P43405)
[20] = molecular target: HIPK2 (Homo sapiens, UniProt Q9H2X6)
[21] = system: CAB39
[22] = molecular target: CDK1 (Homo sapiens, UniProt P06493)
[23] = molecular target: CSNK1G2 (Homo sapiens, UniProt P78368)
[24] = molecular target: AAK1 (Homo sapiens, UniProt Q2M2I8)
[25] = molecular target: CAMK2A (Homo sapiens, UniProt Q9UQM7)
[26] = molecular target: EGFR (Homo sapiens, UniProt P00533)
[27] = molecular target: CDK12 (Homo sapiens, UniProt Q9NYV4)
[28] = molecular target: CSK (Homo sapiens, UniProt P41240)
[29] = molecular target: BTK (Homo sapiens, UniProt Q06187)
[30] = molecular target: LIMK2 (Homo sapiens, UniProt P53671)
[31] = molecular target: CHUK (Homo sapiens, UniProt O15111)
[32] = molecular target: HIPK1 (Homo sapiens, UniProt Q86Z02)
[33] = molecular target: LATS2 (Homo sapiens, UniProt Q9NRM7)
[34] = molecular target: NEK1 (Homo sapiens, UniProt Q96PY6)
[35] = molecular target: RPS6KA3 (Homo sapiens, UniProt P51812)
[36] = molecular target: EPHB1 (Homo sapiens, UniProt P54762)
[37] = molecular target: MAPK14 (Homo sapiens, UniProt Q16539)
[38] = molecular target: TAOK1 (Homo sapiens, UniProt Q7L7X3)
[39] = molecular target: RPS6KA4 (Homo sapiens, UniProt O75676)
[40] = molecular target: STK16 (Homo sapiens, UniProt O75716)

SMILES: Cc1nc(C(F)(F)F)c2c(C(N)=O)c(N)n(-c3c(C)ccc(O)c3C)c2n1 (single isomer, unassigned)
- RB50 [1]: >50 µM
- RB50 [2]: >50 µM
- RB50 [3]: >50 µM
- RB50 [4]: >50 µM
- RB50 [5]: 308 nM
- RB50 [6]: >50 µM
- RB50 [7]: 2.4 nM
- RB50 [8]: >50 µM
- RB50 [9]: 87.9 nM
- RB50 [10]: >50 µM
- RB50 [11]: >50 µM
- RB50 [12]: >50 µM
- RB50 [13]: >50 µM
- RB50 [14]: >50 µM
- RB50 [15]: >50 µM
- RB50 [16]: 291 nM
- RB50 [17]: >50 µM
- RB50 [18]: 832 pM
- RB50 [19]: >50 µM
- RB50 [20]: >50 µM
- RB50 [21]: >50 µM
- RB50 [22]: >50 µM
- RB50 [23]: >50 µM
- RB50 [24]: >50 µM
- RB50 [25]: >50 µM
- RB50 [26]: >50 µM
- RB50 [27]: >50 µM
- RB50 [28]: >50 µM
- RB50 [29]: >50 µM
- RB50 [30]: >50 µM
- RB50 [31]: >50 µM
- RB50 [32]: >50 µM
- RB50 [33]: >50 µM
- RB50 [34]: >50 µM
- RB50 [35]: >50 µM
- RB50 [36]: 191 nM
- RB50 [37]: >50 µM
- RB50 [38]: >50 µM
- RB50 [39]: >50 µM
- RB50 [40]: >50 µM
